Assay [1] addresses Estrogen receptor beta (Homo sapiens) (UniProt Q92731). In words: Relative binding affinity to human ERbeta measured after 2 hrs by competitive fluorometric binding assay relative to estradiol.
The species entered for assay [2] is Homo sapiens. Kind of assay: Selectivity ratio of relative binding affinity for human ERalpha to relative binding affinity for human ERbeta.

Chains of the proteins cited; added tags and fusions are not shown.
UniProt Q92731, whole entry: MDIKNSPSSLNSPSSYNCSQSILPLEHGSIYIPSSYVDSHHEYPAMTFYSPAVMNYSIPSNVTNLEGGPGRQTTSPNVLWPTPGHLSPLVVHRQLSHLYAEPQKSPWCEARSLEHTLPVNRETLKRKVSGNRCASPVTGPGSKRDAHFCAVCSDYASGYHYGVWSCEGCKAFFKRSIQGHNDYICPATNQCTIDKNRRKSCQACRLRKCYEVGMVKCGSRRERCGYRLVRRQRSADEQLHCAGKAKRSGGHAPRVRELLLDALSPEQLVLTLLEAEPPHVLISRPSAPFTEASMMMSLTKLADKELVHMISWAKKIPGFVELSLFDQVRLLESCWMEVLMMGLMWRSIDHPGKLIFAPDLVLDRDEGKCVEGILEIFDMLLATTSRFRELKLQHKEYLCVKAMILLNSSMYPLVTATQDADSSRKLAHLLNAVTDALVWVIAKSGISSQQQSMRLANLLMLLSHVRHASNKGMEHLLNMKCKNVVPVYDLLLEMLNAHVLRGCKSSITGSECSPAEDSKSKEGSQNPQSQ

`O=S(=O)(Oc1cccc(Br)c1)C1CC2OC1C(c1ccc([Se]c3ccccc3)cc1)=C2c1ccc(O)cc1` (centres undefined): the RBA in assay [1] is 0.11%. For the same compound, in assay [2], the Ratio worked out at 11.4.
In assay [1], `O=S(=O)(Oc1cccc(C(F)(F)F)c1)C1CC2OC1C(c1ccc([Se]c3ccccc3)cc1)=C2c1ccc(O)cc1` (centres undefined) came in with an RBA of 1.48%. Also, in assay [2], the Ratio was determined as 4.32.
In turn, `COc1cccc(OS(=O)(=O)C2CC3OC2C(c2ccc(O)cc2)=C3c2ccc([Se]c3ccccc3)cc2)c1` (centres undefined) came in with an RBA in assay [1] of 0.85%. The Ratio in assay [2] came to 2.08.
Compound `O=S(=O)(Oc1ccc(O)cc1)C1CC2OC1C(c1ccc(O)cc1)=C2c1ccc([Se]c2ccccc2)cc1` (centres undefined) yielded an RBA in assay [1] of 0.09%. For the same compound, the Ratio in assay [2] stood at 6.8.
Taken in the same sequence, the figures for `Cc1ccc(OS(=O)(=O)C2CC3OC2C(c2ccc([Se]c4ccccc4)cc2)=C3c2ccc(O)cc2)cc1` (centres undefined) were 1.44% and 3.95.
`Cc1ccc(OS(=O)(=O)C2CC3OC2C(c2ccc(O)cc2)=C3c2ccc([Se]c3ccccc3)cc2)cc1` (centres undefined) gave an RBA in assay [1] of 0.51%. For the same compound, the Ratio in assay [2] came to 1.59.
`O=S(=O)(Oc1ccc(Cl)cc1)C1CC2OC1C(c1ccc([Se]c3ccccc3)cc1)=C2c1ccc(O)cc1` (centres undefined) showed an RBA in assay [1] of 0.25%. Further, in assay [2], the Ratio was 20.8.
`O=S(=O)(Oc1ccccc1)C1CC2OC1C(c1ccc(O)cc1)=C2c1ccc([Se]c2ccccc2)cc1` (centres undefined) displayed an RBA in assay [1] of 0.61%. In addition, the Ratio in assay [2] came out at 1.77.
On to `COc1ccc(OS(=O)(=O)C2CC3OC2C(c2ccc(O)cc2)=C3c2ccc([Se]c3ccccc3)cc2)cc1` (centres undefined), for which the RBA in assay [1] was found to be 1.95%. Further, the Ratio in assay [2] stood at 0.85.
With `O=S(=O)(Oc1cccc(Cl)c1)C1CC2OC1C(c1ccc([Se]c3ccccc3)cc1)=C2c1ccc(O)cc1` (centres undefined), the RBA in assay [1] worked out at 0.2%. Also, the Ratio in assay [2] turned out to be 6.95.
With `O=S(=O)(Oc1ccc(Cl)cc1)C1CC2OC1C(c1ccc(O)cc1)=C2c1ccc([Se]c2ccccc2)cc1` (centres undefined), the RBA in assay [1] was found to be 1.01%. Moreover, the Ratio in assay [2] came to 0.48.
`O=S(=O)(Oc1cccc2ccccc12)C1CC2OC1C(c1ccc(O)cc1)=C2c1ccc([Se]c2ccccc2)cc1` (centres undefined) gave an RBA in assay [1] of 0.51%. Further, the Ratio in assay [2] was 1.22.
As to `O=S(=O)(Oc1ccc(C(F)(F)F)cc1)C1CC2OC1C(c1ccc([Se]c3ccccc3)cc1)=C2c1ccc(O)cc1` (centres undefined), the RBA in assay [1] worked out at 0.63%. Further, in assay [2], the Ratio worked out at 0.11.
Compound `O=S(=O)(Oc1ccc(Br)cc1)C1CC2OC1C(c1ccc([Se]c3ccccc3)cc1)=C2c1ccc(O)cc1` (centres undefined) came in with an RBA in assay [1] of 0.71%. Also, in assay [2], the Ratio worked out at 5.52.
The compound `O=S(=O)(Oc1cccc(O)c1)C1CC2OC1C(c1ccc(O)cc1)=C2c1ccc([Se]c2ccccc2)cc1` (centres undefined) registered an RBA in assay [1] of 3.13%. Besides, the Ratio in assay [2] worked out at 0.54.
Regarding `O=S(=O)(Oc1ccc(C(F)(F)F)cc1)C1CC2OC1C(c1ccc(O)cc1)=C2c1ccc([Se]c2ccccc2)cc1` (centres undefined), in assay [1], the RBA came to 2.96%. The Ratio in assay [2] amounted to 0.77.
Compound `O=S(=O)(Oc1ccccc1)C1CC2OC1C(c1ccc(O)cc1)=C2c1ccc(O)cc1` (centres undefined) registered an RBA in assay [1] of 2.77%. Further, the Ratio in assay [2] worked out at 2.74.
Compound `O=S(=O)(Oc1ccc(Br)cc1)C1CC2OC1C(c1ccc(O)cc1)=C2c1ccc([Se]c2ccccc2)cc1` (centres undefined) yielded an RBA in assay [1] of 1.44%. Also, in assay [2], the Ratio stood at 0.79.
In turn, `O=S(=O)(Oc1ccc([Se]c2ccccc2)cc1)C1CC2OC1C(c1ccc(O)cc1)=C2c1ccc(O)cc1` (centres undefined) gave an RBA in assay [1] of 0.08%. The Ratio in assay [2] is 7.25.
Turning to `Cc1cccc(OS(=O)(=O)C2CC3OC2C(c2ccc([Se]c4ccccc4)cc2)=C3c2ccc(O)cc2)c1` (centres undefined), the RBA in assay [1] was found to be 0.97%. Further, the Ratio in assay [2] turned out to be 6.82.
Taken in the same sequence, the figures for `COc1ccc(OS(=O)(=O)C2CC3OC2C(c2ccc([Se]c4ccccc4)cc2)=C3c2ccc(O)cc2)cc1` (centres undefined) were 0.21% and 1.29.
With `O=S(=O)(Oc1cccc([Se]c2ccccc2)c1)C1CC2OC1C(c1ccc(O)cc1)=C2c1ccc(O)cc1` (centres undefined), the RBA in assay [1] was 1.02%. For the same compound, in assay [2], the Ratio turned out to be 1.18.

These data come from ChEMBL document CHEMBL5154927, “Discovery of Novel Bicyclic Phenylselenyl-Containing Hybrids: An Orally Bioavailable, Potential, and Multiacting Class of Estrogen Receptor Modulators against Endocrine-Resistant Breast Cancer” (J Med Chem, 2022).
